## Apparent affinities of Ab-14 variants for a coronavirus HR2 peptide

From the AlphaSeq antibody data of Engelhart et al. 2022 (doi:10.1038/s41597-022-01779-4), copy in the FLAb collection.

Target: peptide PDVDLGDISGINAS, taken from heptad repeat 2 (HR2) of SARS-CoV-2 spike.

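Phage display of a naive human antibody library on the peptide gave the parent. AAYL50 was designed without a model: most single CDR substitutions and a random sample of double and triple ones. In AlphaSeq, yeast of one mating type display the scFv and yeast of the other type display the target. After mating in shaken culture at 30 °C for 16 h, diploids were selected and their barcode pairs sequenced. Read counts were normalised to the haploid input and turned into Kd by a linear fit to BCL2-family pairs of known affinity, for each replicate. There are three technical replicates.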

Parent: Ab-14, a human scFv built as VH, a 15-residue (Gly4Ser)3 linker, VL. Only the CDRs of the light chain vary.
VH: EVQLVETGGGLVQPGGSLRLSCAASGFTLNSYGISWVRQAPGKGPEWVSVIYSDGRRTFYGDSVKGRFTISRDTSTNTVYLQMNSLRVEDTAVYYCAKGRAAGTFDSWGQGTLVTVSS
VL: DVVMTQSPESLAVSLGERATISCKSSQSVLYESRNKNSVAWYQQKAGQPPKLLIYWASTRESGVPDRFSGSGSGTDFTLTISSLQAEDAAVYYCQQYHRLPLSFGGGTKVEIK

The parent's light chain CDRs are KSSQSVLYESRNKNSVA, WASTRES, QQYHRLPLS; each variant's own CDRs replace them letter for letter.
All variants listed here change Q96 of the VL, counted from its first residue.
Affinities are written as log10 Kd with Kd in nM; a lower number is a better binder.
The mean shown is taken over the replicates in which the pair was detected.
"nd" marks a missing value. The strain was present, yet no cells mated with the target were sequenced in any replicate, which points to weak or no binding.
Nonspecific signal, from three strains lacking the peptide, appeared in 18% of pairings of library AAYL50, centred on 4.19 (5% of these signals below 2.99); values are not corrected for it.

The variant KSSQSVLYESRNKNSGA / WFSTRES / QPYHRLPLS gave nd (0 of 3 replicates).
The variant KSSQSVLYESRNKNSVL / DASTRES / QPYHRLPLS gave nd (0 of 3 replicates).
The variant KSSQSVLYESRNKNSVR / WASTRES / QFYHRIPLS gave 3.29 (1 of 3 replicates).
The variant CSSQSVLYESRNMNSVA / WASTRES / QLYHRLPLS gave nd (0 of 3 replicates).
The variant KSSQSVLYESPNKNSVA / WASTRES / QDYHRHPLS gave 3.98 (1 of 3 replicates).
The variant KSSQSVLYESRNKNSVA / WAHTRES / QLYHRLPLS gave 3.55 (3 of 3 replicates).
The variant KSSVSVLYESRNKNSVA / WASTRES / QVYHRLPLS gave 2.95 (3 of 3 replicates).
The variant KSSQSVLYESRNKNSVA / WASTRLY / QTYHRLPLS gave 2.44 (3 of 3 replicates).
The variant KSSQFVLYESRNKNSVS / WASTRES / QIYHRLPLS gave nd (0 of 3 replicates).
The variant KSSQSVLYESRNKNSVA / WAQTRES / QRYHRLPLS gave 1.10 (3 of 3 replicates).
The variant KSSQSVLYGSRNKNIVA / WASTRES / QPYHRLPLS gave 5.14 (2 of 3 replicates).
The variant KSSQSVLPESRNKNWVA / WASTRES / QWYHRLPLS gave 4.58 (1 of 3 replicates).
The variant KSSDSVWYESRNKNSVA / WASTRES / QAYHRLPLS gave 1.50 (3 of 3 replicates).
The variant KSSQSVLYESRNKNSVA / WASTRED / QLYHRLPLT gave nd (0 of 3 replicates).
The variant KSTQSVLYESRNKNSVA / WASTRES / QCYLRLPLS gave 3.38 (1 of 3 replicates).
The variant VSSQHVLYESRNKNSVA / WASTRES / QAYHRLPLS gave 4.44 (3 of 3 replicates).
The variant KSSQKVLYESRNKNSVA / WASTRES / QPYHRLPCS gave 4.30 (1 of 3 replicates).
The variant KSSQSVLYESRNKNSVA / WASTREL / QSYHRLPLS gave 3.30 (2 of 3 replicates).
The variant KSSQHVLYESRNKNFVA / WASTRES / QFYHRLPLS gave 4.73 (3 of 3 replicates).
The variant KSSQSVLYESRNKDSVA / WESTRES / QNYHRLPLS gave nd (0 of 3 replicates).
The variant KSSQSELYESRNKNSVA / WASTRES / QLYHRLPLS gave 2.14 (3 of 3 replicates).
The variant KMSQSVLYESRNKPSVA / WASTRES / QWYHRLPLS gave 0.57 (3 of 3 replicates).
The variant KSSQSVQYESRNKNSVA / WASTRSS / QSYHRLPLS gave nd (0 of 3 replicates).
The variant ASSQSVLYESRNKNSVA / WACTRES / QVYHRLPLS gave nd (0 of 3 replicates).
The variant KSSQSVLYESRNKNSVW / WASTRKS / QTYHRLPLS gave nd (0 of 3 replicates).
The variant KSSQSVLYESRNKNYVA / WASTRES / QFYHRIPLS gave 2.86 (3 of 3 replicates).
The variant KSSYSVLYESRNKNSVA / WISTRES / QKYHRLPLS gave nd (0 of 3 replicates).
The variant KISQSVLYESRNKNSVA / WASTRES / QMYHRLPVS gave nd (0 of 3 replicates).
The variant KSSQSVLYESRNKNSVA / WASTRES / QDYHRLPLP gave 0.56 (3 of 3 replicates).
The variant KQSQSVLYESRNKNSVA / WASTRES / QYYHDLPLS gave 6.16 (1 of 3 replicates).
The variant KSSQSVLYESNNKNSVA / WASTRES / QRYHLLPLS gave 1.43 (3 of 3 replicates).
The variant KSSQSVLYESRNKNSVA / WAWTRES / QPYHRLPLL gave 2.30 (2 of 3 replicates).
The variant KSSQSVLYESRNKNSVA / WASTRES / QNWHRLGLS gave 1.35 (3 of 3 replicates).
The variant KSSQSVLYESRNKNSVA / WASTRES / QRYHRLPLS gave 2.00 (3 of 3 replicates).
The variant ISSQSVLYESRNKNSVA / WASTRES / QFYHRLPYS gave nd (0 of 3 replicates).
The variant KSSQSVLYESRNKNGVA / WASTRES / QNYHRLPLS gave 1.61 (3 of 3 replicates).
The variant KSSQSVLYESRNKNSVA / WASTRPS / QKYHRLPLS gave 4.39 (1 of 3 replicates).

The last 3 entries again:

CDR-L1,CDR-L2,CDR-L3,"mean, log10 nM",seen in
ISSQSVLYESRNKNSVA,WASTRES,QFYHRLPYS,nd,0/3
KSSQSVLYESRNKNGVA,WASTRES,QNYHRLPLS,1.61,3/3
KSSQSVLYESRNKNSVA,WASTRPS,QKYHRLPLS,4.39,1/3